We go through 1 compound from patent US10940173B2, “Cannabis oil extracts and compositions” (priority 2015, dated 2021).

Sequences of proteins named here, by UniProt entry; tags and fusion partners are left off.
UniProt P34972, whole entry: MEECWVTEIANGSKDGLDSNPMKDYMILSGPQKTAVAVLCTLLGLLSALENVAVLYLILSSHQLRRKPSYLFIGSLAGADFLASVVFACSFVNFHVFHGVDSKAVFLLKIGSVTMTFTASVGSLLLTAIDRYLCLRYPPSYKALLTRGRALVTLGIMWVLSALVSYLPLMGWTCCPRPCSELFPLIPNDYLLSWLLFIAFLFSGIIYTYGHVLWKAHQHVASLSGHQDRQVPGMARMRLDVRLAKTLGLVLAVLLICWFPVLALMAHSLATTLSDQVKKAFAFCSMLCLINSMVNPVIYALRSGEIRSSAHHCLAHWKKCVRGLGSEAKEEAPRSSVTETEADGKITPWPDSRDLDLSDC

Assay [1] deals with T1, CNR2 (also known as CB2) (Homo sapiens, UniProt P34972). The experiment in a line: cAMP competitive inhibition immunoassay (HitHunter), CNR2. The format is cell-based.
In assay [2] the target is T1, CNR2 (also known as CB2). Description: β-arrestin GPCR assay (PathHunter), CNR2. Also on record: β-galactosidase enzyme fragment (complementation partner). The format is cell-based.

Bounds are passed on as bounds.

For orientation: EC50 means the concentration that produces a half-maximal response. Read a low EC50 as higher potency in that assay. `C=C(C)[C@@H]1CCC(C)=C[C@H]1c1c(O)cc(CCCCC)cc1O` [CBD, cannabidiol]: the EC50 on CNR2 (also known as CB2) [1] and at CNR2 (also known as CB2) [2] was > 16.7 µM throughout.
